# Values quoted from earlier work as cited in publication PMC3314146.
# Sequences of proteins named here, by UniProt entry; tags and fusion partners are left off. Residues count along the entry.
# UniProt P43896, 56-338: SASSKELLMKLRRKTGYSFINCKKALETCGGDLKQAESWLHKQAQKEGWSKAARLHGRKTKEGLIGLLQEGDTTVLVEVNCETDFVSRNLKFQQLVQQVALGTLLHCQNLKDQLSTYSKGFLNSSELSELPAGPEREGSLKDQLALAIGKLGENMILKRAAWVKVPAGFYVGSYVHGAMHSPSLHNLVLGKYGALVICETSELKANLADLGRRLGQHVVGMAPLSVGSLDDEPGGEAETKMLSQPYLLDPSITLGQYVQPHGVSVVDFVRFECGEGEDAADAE
# Target: EF-Tsmt (Bos taurus) (UniProt P43896)
substance,measurement,value
EF-Tumt (from UniProt P49410),Kd,5.5 nM
